Source: PubChem (Broad Institute)
ERp5 block = ERp5 (human) disulfide isomerase inhibition; 350,000 tested, 0.05% active; ERp5 insulin aggregation, absorbance 650 nm, 90 min; inhibition, % at 9.99 µM; AID 651711;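 active = mean replicate inhibition above about 25%, with every replicate also reaching it, limit read from the data, passing the limit was not always enough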
FGF22 binding = FGF22 (human) thermal shift binding. 340,000 tested, 1.5% active. Q9HCT0. activity (Tm shift, normalised), % at 9.99 µM. recombinant FGF22 thermal shift, SYPRO orange fluorescence; percent of sucrose octasulfate shift, DMSO zero. AID 651658;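 active = mean Tm shift, scaled 0 neutral to 100 positive control, at about 1.3% or above, every replicate too, limit read from the data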
UUG fidelity = modulators of start codon recognition fidelity in yeast. S. cerevisiae UUG-firefly luciferase reporter, luminescence/redox ratio. activity score, % at 18.7 µM. 0.13% of 350,000 active. AID 602363;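 active = replicate mean at a twofold rise or more, about +100% in these data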;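 also: firefly luciferase made from a UUG start codon reports start codon fidelity; reporter light over untreated wells divided by growth signal over untreated wells; some hits fall short of that in this replicate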
SIRT5 block = inhibitors of human sirtuin-5 desuccinylase. Q9NXA8. Purified SirT5, succinyl-peptide AMC, trypsin-coupled fluorescence. inhibition, % at 15 µM. 330,000 tested, 1.1% active. AID 652115; in the data active = inhibition above about 15%
PDI turbidity = PDI (human) enzyme inhibition. P07237. PDI insulin aggregation turbidity, A650, 90 min. inhibition, % at 10 µM. 350,000 tested, 0.052% active. AID 588391;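 active = mean inhibition across replicates of 30% or more, whatever share of single replicates reach that level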
S100A4 inh HTS = S100A4-myosin IIA interaction inhibition; AID 652163; P26447; 360,000 tested, 0.14% active; inhibition, % at 10.7 µM; S100A4/TAMRA-MyoIIA peptide fluorescence polarization;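 active = mean inhibition of at least 70% across replicates, with every replicate also reaching that level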
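Compound dosing: one dose per compound; test system: human S100A4 monomer with TAMRA-labelled myosin IIA peptide; probe or stimulus: TAMRA-labelled myosin IIA heavy-chain peptide probe, 5 nM; medium: HEPES buffer with Ca2+, pH 7.2; schedule: 5 min incubation before reading; benchmarks: neutral control DMSO, positive control TFP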
Active calls of the source: *; . = no result. Only some compounds are listed: those with a hit (about 2.2% of all), similar ones and a draw of the others.

1. COCCCN1C(=O)C(CC(=O)NC(c2ccccc2)c2ccccc2)CC(C(=O)N(C)C)=C1C (stereo not drawn)
2. COCCCN1C(=O)C(CC(=O)NC(c2ccccc2)c2ccccc2)CC(C(=O)N2CCOCC2)=C1C (stereo not drawn)
3. C[C@@H]1CN([C@@H](C)CO)C(=O)c2cc(NC(=O)Cc3ccccc3)ccc2O[C@@H](C)CCCCO[C@H]1CN(C)S(=O)(=O)c1ccccc1
4. CS(=O)(=O)N(CC(=O)Nc1ccc(S(=O)(=O)N2CCCC2)cc1)c1ccccc1
5. O=C(CSc1ncnc2ccccc12)Nc1cccc(S(=O)(=O)N2CCCC2)c1
6. O=C(CSc1ncnc2ccccc12)Nc1cc(S(=O)(=O)N2CCCCC2)ccc1Cl
assay / entry	1	2	3	4	5	6
SIRT5 block	-4.2	29.4*	6.7	-1.7	0.5	.
S100A4 inh HTS	-5.5	-2.0	-3.9	-3.7	-2.6	.
ERp5 block	4.1	6.9	-2.6	12.7	2.8	.
FGF22 binding	0.4	0.1	-0.1	42.9*	43.1*	.
UUG fidelity	-2.1	-16.4	18.3	.	-18.0	-12.2
PDI turbidity	4.3	-3.5	.	-1.7	2.6	-3.1

7. O=C(CN1CCN(Cc2ccccc2)CC1)Nc1cccc(S(=O)(=O)N2CCCCCC2)c1
8. CCOC(=O)N1CCN(C(=O)CNC(=O)Cn2cnc3ccccc3c2=O)CC1
9. O=C(O)C1CCCCC1C(=O)Nc1ccc(S(=O)(=O)N2CCCC2)cc1 (stereo not drawn)
10. O=C(Nc1ccc(S(=O)(=O)N2CCCC2)cc1)N1c2ccccc2Sc2ccccc21
11. O=C(Nc1ccccc1)Nc1ccc(S(=O)(=O)N2CCCCC2)cc1
12. O=C(Cn1cnc2ccccc2c1=O)Nc1ccc(S(=O)(=O)N2CCCC2)cc1
assay / entry	7	8	9	10	11	12
SIRT5 block	6.4	0.9	16.5*	-0.2	.	16.4*
S100A4 inh HTS	-1.3	4.4	-0.3	-3.7	.	2.8
ERp5 block	-2.0	2.2	-2.8	3.6	.	1.8
FGF22 binding	43.3*	43.5*	.	2.3*	.	-0.1
UUG fidelity	.	-18.9	-7.1	-18.8	-12.2	.
PDI turbidity	6.1	-2.5	8.1	3.8	5.1	1.1

Entries of single compounds as entered above:
O=C(Nc1ccc(S(=O)(=O)N2CCCC2)cc1)N1c2ccccc2Sc2ccccc21 in the list: SIRT5 block: -0.2; S100A4 inh HTS: -3.7; ERp5 block: 3.6; FGF22 binding: 2.3*; UUG fidelity: -18.8; PDI turbidity: 3.8
O=C(Nc1ccccc1)Nc1ccc(S(=O)(=O)N2CCCCC2)cc1 in the list: SIRT5 block: .; S100A4 inh HTS: .; ERp5 block: .; FGF22 binding: .; UUG fidelity: -12.2; PDI turbidity: 5.1

More results
13. COc1ccc2c3c([nH]c2c1)[C@@H](CO)N(S(C)(=O)=O)CC31CCN(Cc2nccs2)CC1
14. CCCN(C)C[C@H]1OCCCC[C@H](C)Oc2ccc(NS(=O)(=O)c3ccc(F)cc3)cc2C(=O)N([C@@H](C)CO)C[C@@H]1C
15. COc1ccc(NC(=O)CSc2nnc(NC(=O)C3CC3)s2)cc1OC
16. CC(=O)Nc1ccc(NC(=O)CSc2nnc(NC(=O)C3CC3)s2)cc1
17. COc1ccc(NC(=O)CSc2ccc(-c3ccccn3)nn2)cc1OC
18. COc1ccc(-c2ccc(SCC(=O)Nc3cccc(C(C)=O)c3)nn2)cc1OC
assay / entry	13	14	15	16	17	18
SIRT5 block	.	-4.7	1.3	-3.2	-7.4	-1.5
S100A4 inh HTS	.	-28.3	-2.7	5.5	-3.6	5.4
ERp5 block	.	3.1	26.1*	-9.0	-2.1	1.3
FGF22 binding	-0.2	-0.2	0.0	0.1	43.2*	43.0*
UUG fidelity	.	0.3	-0.4	-8.3	-32.6	-33.6
PDI turbidity	.	.	8.4	-31.3	1.8	2.6

19. O=C(C[C@H]1C[C@@H]2c3cc(NC(=O)NC4CCCCC4)ccc3O[C@@H]2[C@@H](CO)O1)NC1CCCC1
20. C[C@@H]1CN([C@H](C)CO)C(=O)c2cccc(NS(=O)(=O)c3ccc(F)cc3)c2O[C@H]1CN(C)S(=O)(=O)c1ccccc1
21. CO[C@@H]1CN(C)C(=O)c2cc(NC(=O)CC(F)(F)F)ccc2OC[C@@H](C)N(C(=O)c2ccccc2F)C[C@@H]1C
22. O=C(C[C@@H]1C=C[C@H](NC(=O)CN2CCOCC2)[C@@H](CO)O1)NCCc1ccncc1
23. CC(=O)c1ccc(NC(=O)CSc2nnc(Cn3cnc4ccccc43)o2)cc1
24. CC(=O)c1cccc(NC(=O)CSc2ccc(-c3ccco3)nn2)c1
assay / entry	19	20	21	22	23	24
SIRT5 block	3.8	0.7	0.5	-1.7	-0.3	0.5
S100A4 inh HTS	5.2	-2.4	-16.1	-1.0	-2.8	-6.0
ERp5 block	6.9	11.3	-3.8	-1.8	-0.2	9.5
FGF22 binding	.	-0.2	0.5	.	43.4*	-0.2
UUG fidelity	.	-4.2	.	.	-23.9	-15.4
PDI turbidity	.	.	.	.	-2.0	0.1

25. CC(=O)Nc1ccc(NC(=O)CSc2nnc(-c3ccco3)o2)cc1
26. CCc1ccc(NC(=O)CSc2nnc(-c3ccco3)o2)cc1
27. CCc1ccc(NC(=O)CSc2ccc(-c3ccco3)nn2)cc1
28. CN(C)C(=O)[C@@H]1[C@@H](CO)[C@@H]2Cn3c(ccc(-c4ccccc4F)c3=O)[C@@H]2N1C(=O)c1cnccn1
29. Cc1ccc(N(Cc2ccc(C(=O)NCC3CCCO3)cc2)S(C)(=O)=O)cc1C (stereo not drawn)
30. O=C(Cc1ccc(F)cc1)NCC1CCCO1 (stereo not drawn)
assay / entry	25	26	27	28	29	30
SIRT5 block	-0.9	-1.2	-0.2	1.7	0.0	-2.6
S100A4 inh HTS	-0.6	-3.5	-5.7	-6.8	-5.3	-10.0
ERp5 block	-4.5	0.7	-3.4	1.3	-0.5	3.5
FGF22 binding	43.6*	-0.1	43.1*	-0.1	43.4*	43.3*
UUG fidelity	-5.2	-0.6	.	.	.	1.0
PDI turbidity	-1.7	3.4	1.6	.	-2.7	3.5

31. CS(=O)(=O)N(CC(=O)NCC1CCCO1)c1cccc([N+](=O)[O-])c1 (stereo not drawn)
32. Cc1ccc(SCCC(=O)NCC2CCCO2)cc1 (stereo not drawn)
33. Cc1ccc(SCC(=O)NCC2CCCO2)cc1 (stereo not drawn)
34. O=C(Cc1ccccc1)NCC1CCCO1 (stereo not drawn)
35. CS(=O)(=O)N(Cc1ccc(Cl)cc1)c1ccc(C(=O)NCC2CCCO2)cc1 (stereo not drawn)
36. COc1ccccc1S(=O)(=O)N(C)C[C@H]1OCc2ccccc2-c2c(n(C)c3ccccc23)C(=O)N([C@@H](C)CO)C[C@@H]1C
assay / entry	31	32	33	34	35	36
SIRT5 block	-1.4	.	-0.5	.	-4.2	11.0
S100A4 inh HTS	-1.7	.	-3.0	.	-1.3	-3.1
ERp5 block	4.7	.	2.2	.	-0.8	5.4
FGF22 binding	42.9*	.	43.2*	.	0.1	-0.2
UUG fidelity	.	-10.1	.	-1.3	.	.
PDI turbidity	-0.7	-1.2	16.1	14.0	20.5	.

37. Cc1ccc(NS(=O)(=O)c2ccc(C(=O)NCC3CCCO3)cc2)cc1 (stereo not drawn)
38. O=C(CSc1nnc(-c2ccccc2)c(-c2ccccc2)n1)NCC1CCCO1 (stereo not drawn)
39. Cc1cc(S(=O)(=O)Nc2ccc(C(=O)NCC3CCCO3)cc2)ccc1F (stereo not drawn)
40. Cn1c(SCC(=O)N/N=C/c2ccco2)nc2ccccc21
41. COc1ccccc1NC(=O)N[C@H]1CC[C@@H](CCNC(=O)Cc2ccccn2)O[C@@H]1CO
42. COc1ccc(OC)c(NC2c3ncccc3C(=O)N2Cc2ccco2)c1 (stereo not drawn)
43. CO[C@@H]1CN(C)C(=O)c2ccc(NC(=O)c3ccccc3)cc2OC[C@@H](C)N(C(=O)CN(C)C)C[C@H]1C
44. O=C(CN1CCC(NC(=O)c2ccccc2F)CC1)Nc1ccc2c(c1)OCCO2
assay / entry	37	38	39	40	41	42	43	44
SIRT5 block	-2.4	.	.	-0.1	-2.2	16.0*	2.1	-2.3
S100A4 inh HTS	-16.3	1.4	-5.3	-4.0	-28.4	-7.2	13.1	-2.0
ERp5 block	1.3	7.8	9.8	1.6	1.4	5.5	8.5	-1.8
FGF22 binding	43.7*	43.2*	-0.1	43.4*	0.2	0.0	0.0	43.4*
UUG fidelity	.	6.9	0.1	-14.6	-11.7	-12.4	3.0	-10.6
PDI turbidity	1.1	-3.7	-3.8	-7.0	.	6.8	.	-7.9
